Measured values published in ChEMBL document CHEMBL5154816, “Structure-Based Discovery and Optimization of Furo[3,2-c]pyridin-4(5H)-one Derivatives as Potent and Second Bromodomain (BD2)-Selective Bromo and Extra Terminal Domain (BET) Inhibitors” (J Med Chem, 2022).

Sequences of proteins named here, by UniProt entry; tags and fusion partners are left off.
UniProt P21675, whole entry: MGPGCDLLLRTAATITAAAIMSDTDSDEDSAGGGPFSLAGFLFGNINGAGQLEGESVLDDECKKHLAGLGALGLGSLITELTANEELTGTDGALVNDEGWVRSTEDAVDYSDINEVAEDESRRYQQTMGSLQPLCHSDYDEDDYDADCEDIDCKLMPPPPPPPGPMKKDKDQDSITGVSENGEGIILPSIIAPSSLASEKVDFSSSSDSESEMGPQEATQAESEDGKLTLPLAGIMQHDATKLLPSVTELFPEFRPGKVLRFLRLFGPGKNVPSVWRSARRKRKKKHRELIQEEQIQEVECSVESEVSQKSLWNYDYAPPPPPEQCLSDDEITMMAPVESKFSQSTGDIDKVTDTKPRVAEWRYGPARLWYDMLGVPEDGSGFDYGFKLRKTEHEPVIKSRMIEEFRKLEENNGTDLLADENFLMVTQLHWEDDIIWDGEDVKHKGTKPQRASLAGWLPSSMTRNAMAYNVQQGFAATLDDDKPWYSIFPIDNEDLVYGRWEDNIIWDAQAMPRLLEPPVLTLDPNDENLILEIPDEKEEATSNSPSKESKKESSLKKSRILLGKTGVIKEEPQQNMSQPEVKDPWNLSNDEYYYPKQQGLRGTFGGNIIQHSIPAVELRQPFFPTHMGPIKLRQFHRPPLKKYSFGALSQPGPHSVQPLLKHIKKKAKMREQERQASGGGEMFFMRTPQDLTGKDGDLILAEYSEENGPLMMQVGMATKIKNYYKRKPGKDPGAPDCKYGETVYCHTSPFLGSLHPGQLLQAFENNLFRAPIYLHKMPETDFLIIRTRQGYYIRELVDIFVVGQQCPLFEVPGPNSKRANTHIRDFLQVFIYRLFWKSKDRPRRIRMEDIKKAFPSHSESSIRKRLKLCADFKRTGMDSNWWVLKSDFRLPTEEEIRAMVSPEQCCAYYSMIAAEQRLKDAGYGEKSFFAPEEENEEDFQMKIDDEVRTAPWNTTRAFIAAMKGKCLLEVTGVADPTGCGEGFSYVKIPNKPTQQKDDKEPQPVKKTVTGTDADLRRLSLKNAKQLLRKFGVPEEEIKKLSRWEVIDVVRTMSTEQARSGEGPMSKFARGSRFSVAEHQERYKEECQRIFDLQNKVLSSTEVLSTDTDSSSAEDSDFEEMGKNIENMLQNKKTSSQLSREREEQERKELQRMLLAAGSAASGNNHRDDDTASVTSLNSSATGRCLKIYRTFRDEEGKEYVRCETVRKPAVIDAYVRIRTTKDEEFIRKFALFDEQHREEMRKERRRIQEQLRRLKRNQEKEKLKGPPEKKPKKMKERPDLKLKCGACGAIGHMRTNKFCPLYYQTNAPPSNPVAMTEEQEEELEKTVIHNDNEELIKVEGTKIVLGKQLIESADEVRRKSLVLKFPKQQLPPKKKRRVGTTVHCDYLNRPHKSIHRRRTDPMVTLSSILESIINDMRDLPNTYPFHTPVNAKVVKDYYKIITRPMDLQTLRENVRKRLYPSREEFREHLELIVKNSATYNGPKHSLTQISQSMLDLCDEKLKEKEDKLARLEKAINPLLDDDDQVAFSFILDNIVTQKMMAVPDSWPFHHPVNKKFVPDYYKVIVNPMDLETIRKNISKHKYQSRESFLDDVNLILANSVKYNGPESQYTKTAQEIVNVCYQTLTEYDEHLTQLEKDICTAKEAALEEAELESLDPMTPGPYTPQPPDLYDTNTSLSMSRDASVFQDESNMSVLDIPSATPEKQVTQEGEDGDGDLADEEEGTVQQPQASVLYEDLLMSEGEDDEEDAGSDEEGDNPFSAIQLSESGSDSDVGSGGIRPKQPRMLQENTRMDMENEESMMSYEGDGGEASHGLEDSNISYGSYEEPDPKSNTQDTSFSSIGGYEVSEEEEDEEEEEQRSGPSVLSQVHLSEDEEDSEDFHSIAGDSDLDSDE
UniProt Q15059, whole entry, looked up: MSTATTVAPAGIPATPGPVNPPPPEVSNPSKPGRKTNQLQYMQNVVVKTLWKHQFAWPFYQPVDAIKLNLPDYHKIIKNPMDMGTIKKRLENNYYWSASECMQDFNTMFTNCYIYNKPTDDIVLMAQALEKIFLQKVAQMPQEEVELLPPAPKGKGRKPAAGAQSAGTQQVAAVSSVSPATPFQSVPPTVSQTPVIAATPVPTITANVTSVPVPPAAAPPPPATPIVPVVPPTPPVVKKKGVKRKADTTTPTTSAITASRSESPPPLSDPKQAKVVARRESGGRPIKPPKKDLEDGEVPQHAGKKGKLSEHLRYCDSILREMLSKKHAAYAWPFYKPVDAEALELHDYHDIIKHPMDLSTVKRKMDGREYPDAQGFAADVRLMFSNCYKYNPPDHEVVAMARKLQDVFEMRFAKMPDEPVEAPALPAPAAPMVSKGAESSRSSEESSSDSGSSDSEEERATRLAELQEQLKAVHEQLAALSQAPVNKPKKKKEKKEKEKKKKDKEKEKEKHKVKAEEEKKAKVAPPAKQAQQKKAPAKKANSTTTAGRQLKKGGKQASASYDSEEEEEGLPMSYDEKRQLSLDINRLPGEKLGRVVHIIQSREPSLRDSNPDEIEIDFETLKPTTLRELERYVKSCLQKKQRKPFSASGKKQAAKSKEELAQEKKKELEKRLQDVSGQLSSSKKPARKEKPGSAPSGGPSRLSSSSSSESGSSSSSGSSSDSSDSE

Experiments:
[1] = target: Transcription initiation factor TFIID subunit 1 (Homo sapiens) (UniProt P21675); test: Binding affinity to TAF1 BD2 (unknown origin) assessed as change in melting temperature at 100 uM incubated for 30 mins by thermal shift assay
[2] = target: Bromodomain-containing protein 3 (Homo sapiens, UniProt Q15059); test: Binding affinity to His6-fused BRD3 BD1 (unknown origin) assessed as change in melting temperature at 100 uM incubated for 30 mins by thermal shift assay

`Cc1cc(F)cc(C)c1Oc1ccc(C(C)(C)O)cc1-c1cn(C)c(=O)c2cc(-c3cnc(C4CCCC4)[nH]3)oc12` was tested, and the ΔTm [1] was -0.5 °C and the ΔTm [2] was 2.75 °C.
